The species entered for the series is Rattus norvegicus. Briefly: DrugMatrix - Regimen: Daily Repeat. It counts as toxicity, organism-based, Sprague-Dawley. The arrangement: regimen Daily Repeat, gender Male, age 6-8 weeks. Conditions: in vivo, po, tissue Plasma, route oral GAVAGE, dose level High.
Setting [1] is: 33 mg/kg, 72 h, time 3 day, vehicle .5 % CMC.

This note sets out measurements from ChEMBL document CHEMBL3885881, “DrugMatrix”.

Under setting [1], AURANOFIN returned a CHLORIDE of 105 MEQ/L and a POTASSIUM of 6.89 MEQ/L.
As for MERCURIC CHLORIDE, the CHLORIDE ([…], dose 2.5 mg/Kg, time 14 day, vehicle 100 % WATER) was found to be 104.6 MEQ/L.
